According to patent publication US9295253B2, “Use of abscisic acid on ornamental plants” (Valent BioSciences Corporation, priority 2007, dated 2016):

Tests used:
[1] = tested on: Geranium cuttings; settings: cited from earlier work
[2] = tested on: Gazania; experiment: Drought tolerance and side effects after ABA drench, irrigation withheld; type: in vivo; settings: 250 ppm ABA drench, 2.5 = unmarketable, 4 = severe
Description: (§1) Many different commercial ornamental crops were obtained from local retailers, or from wholesale nurseries, and transported to a greenhouse for testing. Plants were watered to saturation and allowed to stand and drain for about one hour. Plants were selected for uniformity based on leaf area and arranged in a randomized complete block design, or a completely randomized design, on the greenhouse bench. The plants were sprayed or drenched with water or treatment solution equaling about 5-10% of the pot volume. The plants were held without irrigation until all the plants wilted to a point when they were determined to be unmarketable. The plants were rated daily for the extent of wilting on a scale from 1 for no wilting to 4 for complete wilting. A rating of 2.5 was the point at which a plant was determined to be unmarketable and the previous day was recorded as the marketable life of that plant in days. The plants were rated for the extent of lower leaf yellowing or leaf or flower abscission on a scale from 1 for no yellowing or abscission to 4 for complete yellowing or abscission. A rating of 2.5 was the point at which a plant was determined to be unmarketable.
(§2) Ornamental bedding plants were treated (sprayed or drenched) with water or 250 ppm abscisic acid (S-ABA; ABA; S-(+)-abscisic acid; +-ABA, (+)-(S)-cis,trans-abscisic acid, (+)-(S)-cis,trans-ABA; S-ABA; (S)-5-(1-hydroxy-2,6,6,-trimethyl-4-oxo-2-cyclohexen-1-yl)-3-methyl-(2Z,4E)-pentadienoic acid; CAS no. 21293-29-8) and then irrigation was withheld until all the plants wilted. Plants were individually rated on a daily basis for degree of wilting and other undesirable characteristics like leaf yellowing.
(§3) In Table 1, plants were drenched with water or a 250 ppm ABA solution, and held in a greenhouse without irrigation.

[3] = tested on: Cosmos; experiment: as above; type: in vivo; settings: 250 ppm ABA drench, 2.5 = unmarketable, 4 = severe
Description: as §1, §2, §3

[4] = tested on: Coleus; experiment: as above; type: in vivo; settings: 250 ppm ABA drench, 2.5 = unmarketable, 4 = severe
Description: as §1, §2, §3

[5] = tested on: Cuphea; experiment: as above; type: in vivo; settings: 250 ppm ABA drench, 2.5 = unmarketable, 4 = severe
Description: as §1, §2, §3

[6] = tested on: Agapanthus; experiment: as above; type: in vivo; settings: 250 ppm ABA drench, 2.5 = unmarketable, 4 = severe
Description: as §1, §2, §3

[7] = tested on: Celosia; experiment: as above; type: in vivo; settings: 250 ppm ABA drench, 2.5 = unmarketable, 4 = severe
Description: as §1, §2, §3

[8] = tested on: Hydrangea; experiment: as above; type: in vivo; settings: 250 ppm ABA drench, 2.5 = unmarketable, 4 = severe
Description: as §1, §2, §3

[9] = tested on: Pansy; experiment: as above; type: in vivo
Description: as §1, §2, §3

[10] = tested on: Euryops; experiment: as above; type: in vivo; settings: 250 ppm ABA drench, 2.5 = unmarketable, 4 = severe
Description: as §1, §2, §3

[11] = tested on: Calibrachoa; experiment: as above; type: in vivo
Description: as §1, §2, §3

[12] = tested on: Dianthus; experiment: as above; type: in vivo; settings: 250 ppm ABA drench, 2.5 = unmarketable, 4 = severe
Description: as §1, §2, §3

[13] = tested on: Salvia; experiment: as above; type: in vivo; settings: 250 ppm ABA drench, 2.5 = unmarketable, 4 = severe
Description: as §1, §2, §3

[14] = tested on: Chrysanthemum; experiment: as above; type: in vivo; settings: 250 ppm ABA drench, 2.5 = unmarketable, 4 = severe
Description: as §1, §2, §3

[15] = tested on: Pentas; experiment: as above; type: in vivo; settings: 250 ppm ABA drench, 2.5 = unmarketable, 4 = severe
Description: as §1, §2, §3

[16] = tested on: Petunia; experiment: as above; type: in vivo; settings: 250 ppm ABA drench, 2.5 = unmarketable, 4 = severe
Description: as §1, §2, §3

[17] = tested on: Marigold; experiment: as above; type: in vivo; settings: 250 ppm ABA drench, 2.5 = unmarketable, 4 = severe
Description: as §1, §2, §3

[18] = tested on: Snapdragon; experiment: as above; type: in vivo; settings: 250 ppm ABA drench, 2.5 = unmarketable, 4 = severe
Description: as §1, §2, §3

[19] = tested on: New Guinea Impatiens; experiment: as above; type: in vivo
Description: as §1, §2, §3

[20] = tested on: Alyssum; experiment: as above; type: in vivo; settings: 250 ppm ABA drench, 2.5 = unmarketable, 4 = severe
Description: as §1, §2, §3

[21] = tested on: Vinca; experiment: as above; type: in vivo
Description: as §1, §2, §3

[22] = tested on: Lobelia; experiment: as above; type: in vivo; settings: 250 ppm ABA drench, 2.5 = unmarketable, 4 = severe
Description: as §1, §2, §3

[23] = tested on: Rose; experiment: as above; type: in vivo; settings: 250 ppm ABA drench, 2.5 = unmarketable, 4 = severe
Description: as §1, §2, §3

[24] = tested on: Poinsettia; experiment: as above; type: in vivo; settings: 250 ppm ABA drench, 2.5 = unmarketable, 4 = severe
Description: as §1, §2, §3

[25] = tested on: Lantana; experiment: as above; type: in vivo; settings: 250 ppm ABA drench, 2.5 = unmarketable, 4 = severe
Description: as §1, §2, §3

[26] = tested on: Impatiens; experiment: as above; type: in vivo; settings: 250 ppm ABA drench, 2.5 = unmarketable, 4 = severe
Description: as §1, §2, §3

[27] = 250 ppm ABA drench, scale 1 = no abscission, 2.5 = unmarketable, 4 = severe
[28] = 250 ppm ABA drench, scale 1 = no yellowing, 2.5 = unmarketable, 4 = severe

## (S)-5-(1-hydroxy-2,6,6,-trimethyl-4-oxo-2-cyclohexen-1-yl)-3-methyl-(2Z,4E)-pentadienoic acid [ABA]
[1]
  Leaf yellowing: causes the undesirable effect of leaf yellowing
[2]; scale 1 = no abscission
  Leaf or flower abscission, average rating: 1
[2]; scale 1 = no yellowing
  Lower leaf yellowing, average rating: 3
[3]; scale 1 = no abscission
  Leaf or flower abscission, average rating: 1
[3]; scale 1 = no yellowing
  Lower leaf yellowing, average rating: 1
[4]; scale 1 = no abscission
  Leaf or flower abscission, average rating: 1
[4]; scale 1 = no yellowing
  Lower leaf yellowing, average rating: 1
[5]; scale 1 = no abscission
  Leaf or flower abscission, average rating: 1
[5]; scale 1 = no yellowing
  Lower leaf yellowing, average rating: 1
[6]; scale 1 = no abscission
  Leaf or flower abscission, average rating: 1
[6]; scale 1 = no yellowing
  Lower leaf yellowing, average rating: 2
[7]; scale 1 = no abscission
  Leaf or flower abscission, average rating: 1
[7]; scale 1 = no yellowing
  Lower leaf yellowing, average rating: 1
[8]; scale 1 = no abscission
  Leaf or flower abscission, average rating: 1
[8]; scale 1 = no yellowing
  Lower leaf yellowing, average rating: 1
[9]; [27]
  Leaf or flower abscission, average rating: 1
[9]; [28]
  Lower leaf yellowing, average rating: 3
[9]; ABA application
  ABA-induced leaf yellowing (in words): often occurs
[10]; scale 1 = no abscission
  Leaf or flower abscission, average rating: 1
[10]; scale 1 = no yellowing
  Lower leaf yellowing, average rating: 1
[11]; [27]
  Leaf or flower abscission, average rating: 1
[11]; [28]
  Lower leaf yellowing, average rating: 3
[11]; ABA application
  Undesirable side effects (in words): severe leaf yellowing occur before wilting symptoms develop in the control and treated plants
[12]; scale 1 = no abscission
  Leaf or flower abscission, average rating: 1
[12]; scale 1 = no yellowing
  Lower leaf yellowing, average rating: 1
[13]; scale 1 = no abscission
  Leaf or flower abscission, average rating: 1
[13]; scale 1 = no yellowing
  Lower leaf yellowing, average rating: 1
[14]; scale 1 = no abscission
  Leaf or flower abscission, average rating: 1
[14]; scale 1 = no yellowing
  Lower leaf yellowing, average rating: 1
[15]; scale 1 = no abscission
  Leaf or flower abscission, average rating: 1
[15]; scale 1 = no yellowing
  Lower leaf yellowing, average rating: 1
[16]; scale 1 = no abscission
  Leaf or flower abscission, average rating: 1
[16]; scale 1 = no yellowing
  Lower leaf yellowing, average rating: 1.9
[17]; scale 1 = no abscission
  Leaf or flower abscission, average rating: 1
[17]; scale 1 = no yellowing
  Lower leaf yellowing, average rating: 1
[18]; scale 1 = no abscission
  Leaf or flower abscission, average rating: 1
[18]; scale 1 = no yellowing
  Lower leaf yellowing, average rating: 1.3
[19]; [27]
  Leaf or flower abscission, average rating: 1
[19]; [28]
  Lower leaf yellowing, average rating: 1
[19]; ABA application
  Undesirable side effects (in words): without any noticeable undesirable side effects
[20]; scale 1 = no abscission
  Leaf or flower abscission, average rating: 1
[20]; scale 1 = no yellowing
  Lower leaf yellowing, average rating: 3.5
[21]; [27]
  Leaf or flower abscission, average rating: 3
[21]; [28]
  Lower leaf yellowing, average rating: 2.5
[21]; ABA application
  Flower abscission (in words): often occurs
[22]; scale 1 = no abscission
  Leaf or flower abscission, average rating: 2.5
[22]; scale 1 = no yellowing
  Lower leaf yellowing, average rating: 3
[23]; scale 1 = no abscission
  Leaf or flower abscission, average rating: 1
[23]; scale 1 = no yellowing
  Lower leaf yellowing, average rating: 4
[24]; scale 1 = no abscission
  Leaf or flower abscission, average rating: 2.5
[24]; scale 1 = no yellowing
  Lower leaf yellowing, average rating: 3
[25]; scale 1 = no abscission
  Leaf or flower abscission, average rating: 1
[25]; scale 1 = no yellowing
  Lower leaf yellowing, average rating: 1
[26]; scale 1 = no abscission
  Leaf or flower abscission, average rating: 1
[26]; scale 1 = no yellowing
  Lower leaf yellowing, average rating: 1
